Assay results taken from patent publication US7473681B2, “Kahalalide F” (Pharma Mar, S.A., priority 2000, dated 2009).

Conditions: glass infusion containers, room temperature (+20-25° C., in the dark)

## C/C=C1\NC(=O)[C@H](Cc2ccccc2)NC(=O)[C@@H](C(C)C)NC(=O)[C@@H](C(C)CC)NC(=O)[C@H](NC(=O)C(NC(=O)[C@H](CCCN)NC(=O)[C@H]2CCCN2C(=O)[C@H](NC(=O)[C@@H](NC(=O)[C@@H](NC(=O)[C@H](NC(=O)CCCC(C)C)C(C)C)C(C)O)C(C)C)C(C)C)C(C)CC)C(C)OC(=O)[C@H](C(C)C)NC1=O (single isomer, unassigned) [Kahalalide F, kahalalide F]
  stability of infusion solutions: at least 5 days
